These are literature values, as cited in patent publication US20080139664A1, “ANTI-GLYCATION AGENTS FOR PREVENTING AGE-, DIABETES-, AND SMOKING-RELATED COMPLICATIONS” (NATIONAL RESEARCH COUNCIL OF CANADA, priority 2001, published 2008).

For this data set the following is noted: rabbit eye, cited from earlier work.
[1] abbreviates: 6 hours after 50 μL drop of 0.05% dipivefrin.

Read-outs that look alike come from different tables or passages of the source. Some results are limits rather than exact numbers.

D,L-Epinephrine: the “concentration of D,L-epinephrine in choroid & retina” value (shortened to “concentration of D,L-epinephrine”) (30 min after 50 μL eye drop of 0.05% dipivefrin) was 2960 ± 1110 nM. Further, the “concentration of D,L-epinephrine” value (1 hour after 50 μL eye drop of 0.05% dipivefrin) is 3760 ± 370 nM. For the same substance, for the setting “3 hours after 50 μL eye drop of 0.05% dipivefrin”, the “concentration of D,L-epinephrine” value was 2190 ± 390 nM. Under setting [1], the “concentration of epinephrine in aqueous humor” value is 280 ± 80 nM, the “concentration of epinephrine in ciliary body” value was 3710 ± 670 nM, the “concentration of epinephrine in cornea” value was 2780 ± 390 nM and the “concentration of epinephrine in iris” value is 9050 ± 1680 nM. Also, under setting [1], the “concentration of epinephrine in lens” value was under 260 nM, the “concentration of epinephrine in sclera” value is 2660 ± 570 nM and the “concentration of epinephrine in vitreous humors” value is under 26 nM. Besides, the “concentration of D,L-epinephrine” value (6 hours after 50 μL eye drop of 0.05% dipivefrin) was 1910 ± 1110 nM.
